Test system: Proteus rettgeri
Assay: Serial dilution test in the microtiter system (MIC), Prot. rettgeri
Conditions: Providencia rettgeri

SMILES: Cc1nnc(SCC2=C(C(=O)O)N3C(=O)[C@@H](NC(=O)Cn4cnnn4)[C@H]3SC2)s1 [Cephazolin, reference compound]
- MIC: > 128 µg/mL

From patent publication US4415566A, “Cephalosporin derivatives” (Boehringer Ingelheim GmbH, priority 1979, dated 1983)
